Earlier results as cited in patent US20140228218A1, “PARAFFINIC OIL AND CLASS B GIBBERELLIN BIOSYNTHESIS INHIBITOR COMPOSITIONS” (SUNCOR ENERGY INC., priority 2011, published 2014).

Tested on: the plant being treated
Settings: reported by B. Huang, GCM, January 2007

In the case of `CC(C)C(O)(c1ccc(OC(F)(F)F)cc1)c1cncnc1` (stereo not drawn) [flurprimidol, α-(1-methylethyl)-α-[4-(trifluoromethoxy)phenyl]-5-pyrimidinemethanol], the “phytotoxicity to the plant being treated (in words)” value is given as “can cause phytoxicity”.
